Earlier results as cited in patent US9532949B2, “Intraperitoneally-administered nanocarriers that release their therapeutic load based on the inflammatory environment of cancers” (STC.UNM, priority 2011, dated 2017).

Conditions: TX 100 considered as 100% lysis; cited from earlier work

SMILES: CC[C@H](C)[C@H](NC(=O)CN)C(=O)NCC(=O)N[C@@H](C)C(=O)N[C@H](C(=O)N[C@@H](CC(C)C)C(=O)N[C@@H](CCCCN)C(=O)N[C@H](C(=O)N[C@@H](CC(C)C)C(=O)N[C@H](C(=O)N[C@H](C(=O)NCC(=O)N[C@@H](CC(C)C)C(=O)N1CCC[C@H]1C(=O)N[C@@H](C)C(=O)N[C@@H](CC(C)C)C(=O)N[C@H](C(=O)N[C@@H](CO)C(=O)N[C@@H](Cc1c[nH]c2ccccc12)C(=O)N[C@H](C(=O)N[C@@H](CCCCN)C(=O)N[C@@H](CCCNC(=N)N)C(=O)N[C@@H](CCCCN)C(=O)N[C@@H](CCCNC(=N)N)C(=O)N[C@@H](CCC(N)=O)C(=O)N[C@@H](CCC(N)=O)C(N)=O)[C@@H](C)CC)[C@@H](C)CC)[C@@H](C)O)[C@@H](C)O)C(C)C)C(C)C [melittin]
- Lysis of lipid bilayers relative to TX 100: 70-80%
